In article PMC3103786 (Journal of medicinal chemistry, 2009) one finds eNOS/nNOS data, which are given here for one compound.

This assay deals with nNOS. Kind of assay: In vitro NOS inhibition, hemoglobin capture assay. The class given is biochemical. Conditions: ratio of Ki values, eNOS over nNOS.

Regarding `NC(=O)[C@@H]1C[C@@H](NC(=O)[C@@H](N)CCC/N=C(\N)N[N+](=O)[O-])CN1` [compound 3, L-N^ω-nitroarginine-(4R)-amino-L-proline amide, reference compound], the eNOS/nNOS was 1100.
